{"sequences": {"note": "Protein sequences, listed by entry. Tags and fused reporters are not part of them. Lines headed by an entry give the natural chain unless they say otherwise; changes in a name come on top.", "UniProt P48443": "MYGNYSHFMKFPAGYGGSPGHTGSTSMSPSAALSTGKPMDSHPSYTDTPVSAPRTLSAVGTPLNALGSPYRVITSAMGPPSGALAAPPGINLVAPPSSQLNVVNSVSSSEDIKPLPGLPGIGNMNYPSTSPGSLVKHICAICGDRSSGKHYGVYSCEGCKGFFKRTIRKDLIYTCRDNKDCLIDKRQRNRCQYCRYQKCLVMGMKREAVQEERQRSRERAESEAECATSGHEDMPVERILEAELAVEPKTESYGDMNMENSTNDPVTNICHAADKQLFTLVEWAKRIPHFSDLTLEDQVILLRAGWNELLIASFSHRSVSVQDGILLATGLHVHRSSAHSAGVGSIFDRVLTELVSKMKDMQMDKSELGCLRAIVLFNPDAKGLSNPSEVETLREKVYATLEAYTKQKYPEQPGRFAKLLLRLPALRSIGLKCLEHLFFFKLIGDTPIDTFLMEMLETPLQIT"}, "source": "patent US20130324520A1", "about": "“RXRG MODULATORS FOR THE TREATMENT OF CANCER” (SLOAN-KETTERING INSTITUTE FOR CANCER RESEARCH, priority 2011, published 2013)", "target": "T1, S-phase promoting complex in HCT116 (Homo sapiens, UniProt P48443)", "T1 construct": "endogenous in cells; host or cells: HCT116", "format": "cell-based", "protocol": "Colon cancer or lung cancer cells were passaged to dishes with coverslips, and incubated in a humidified incubator at 5% CO2 and 37° C. for 1-2 days. The medium was removed and the cells fixed in 4% PFA/PBS for 5 min, gently rinsed with 0.15 M NaCl/20 mM Tris (pH 8.0; TBS), dried, and stored at −20° C. […] After treatment of RXRG ligands or RXRG knockdown, retinoblastoma cells were spread on poly-L-lysine coated slides with medium, and incubated for 3-4 hours before fixation.\nStaining with mouse antibodies: Cells were treated with 1 mM EDTA/PBS for 5 min at room temperature and, washed with PBS. […]\nCo-staining analyses with other antibodies: On completing the first staining reaction as described above, cells were incubated in block 1 for 20 min, incubated overnight with primary antibody in block 1, washed in PBS, incubated for 30 min in block 1 with Cy3 or Cy5 conjugated secondary antibody, and washed in PBS. […] Mounting Media (Vector Labs), and analyzed by inverted immunofluorescent microscopy (Axioplan2 Imaging, Carl Zeiss MicroImaging, LLC).", "note": "Entries after “also recorded” stand apart in the source; their conditions may differ."}
{"smiles": "CN1c2ccc([N+](=O)[O-])cc2N=C(c2ccc(C(=O)O)cc2)c2cc3c(cc21)C(C)(C)CCC3(C)C", "note": "[HX531]", "values": [{"measurement": "S-phase promoting complex association (immunofluorescence)", "result": "dissociation of the S-phase promoting complex; also recorded: dissociates pRb-S807 and TRB2; also recorded: dissociates pRb-S807 and RXRG; also recorded: dissociates pRb-S807 and Emi1; also recorded: dissociates pRb-S807 and p-p107; also recorded: dissociates pRb-S807 and pp130; also recorded: dissociates CDK2 and Cyclin E"}]}
